Compound activity from PubChem.
TDP1 block: inhibitors of human tyrosyl-DNA phosphodiesterase TDP1; Q9NUW8; recombinant TDP1, AlphaScreen DNA substrate cleavage; Potency, µM (series often up to 130 µM), without a hit: at the top dose activity change, negative = inhibition, actives largely listed as inhibitors; 350,000 tested, 0.28% active; AID 485290; note: potency is the fitted concentration of half-maximal effect; % is set by controls: 0 for no effect and ±100 for the full control effect; nearly all actives have a fitted effect of over 40% in size
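Enzyme-compound mixtures sat 15 min at room temperature, followed by a 5 min reaction with 15 nM final substrate and 10 min with AlphaScreen beads. Recombinant human Tdp1 was used at 1 nM final.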
DT40 TDP1 CPT: DT40-hTDP1 cell growth loss with CPT. chicken DT40 Tdp1-/-;hTDP1 cells + 20 nM CPT, ATP luminescence, 48 h. Potency, µM (series often up to 46.2 µM), for the others: at the top dose activity change, negative = growth inhibition, hits mostly inhibitors. 420,000 tested, 12% active; note: potency is the fitted concentration of half-maximal effect; % is set by controls: 0 for no effect and ±100 for the full control effect; nearly all actives have a fitted effect of over 55% in size
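Chicken DT40 Tdp1-/- cells stably complemented with human TDP1 were seeded at 400 cells/well in medium containing 20 nM camptothecin, exposed to pin-transferred compounds, and grown at 37 °C for at least 48 hr. Viability was read as ATP luminescence.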
uPA generation: blocks generation of uPA at the cell surface; cell surface uPA generation assay, qHTS; Potency, µM (series often up to 38.3 µM), without a hit: at the top dose activity change, negative = inhibition, most hits filed as inhibitors; 330,000 tested, 0.31% active; AID 540303; active = well fitted inhibition curve with a large enough effect; inconclusive = small, poorly fitted or top-dose-only effect; inactive = no such curve, though single readings can be large or run the other way; tested in mouse RAW 264.7 cells; note: potency is the fitted concentration of half-maximal effect; % is set by controls: 0 for no effect and ±100 for the full control effect; nearly all actives have a fitted effect of over 55% in size
miR-21 reporter: raises the signal of a miR-21 reporter | HeLa miR-21 FLuc reporter, luciferase, 48 h | Potency, µM (doses to about 38.3 µM), for the others: at the highest dose reporter change, positive = more light | 340,000 tested, under 10 active | AID 2288; active = well fitted rising curve with a large enough effect; inconclusive = small, poorly fitted or top-dose-only effect; inactive = no such curve, though single readings can be large or run the other way;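 also: % of control where 0% means no effect; miR-21 action dims this reporter so a rising signal means less miR-21 action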
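Luminescence from a firefly luciferase reporter carrying a miR-21 binding site downstream, stably expressed under a CMV promoter in HeLa cells that make miR-21 endogenously, reports miRNA modulation after 48 h compound exposure up to approximately 40uM final.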
TDP1 cell noCPT: qHTS for Inhibitors of human tyrosyl-DNA phosphodiesterase 1 (TDP1): qHTS in cells in absence of CPT; DT40 Tdp1-/- hTDP1 cells, no CPT, ATP luminescence, 48 h; Potency, µM (doses to about 46.2 µM), without a hit: top-dose activity change, negative = growth inhibition, usual class: inhibitors; 420,000 tested, 15% active; note: potency is the fitted concentration of half-maximal effect; % is set by controls: 0 for no effect and ±100 for the full control effect; nearly all actives have a fitted effect of over 55% in size
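Compound effects on proliferation are scored in DT40 Tdp1-/-;hTDP1 cells in the absence of CPT. ATP levels (CellTiter-Glo luminescence) are recorded after a ≥48 hr, 37 °C incubation.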
Active calls of the source: *; [ ] = another dose, or the depositor's remark. Sampled rows, rich in hits. Any-hit rate of the full collection: about 16%. Unless noted, calls come from the whole dose curve; as a rule, active = well fitted curve in the direction sought with a large enough effect; inconclusive = small, poorly fitted or top-dose-only effect, or another doubt; inactive = no such curve, though single readings can be large; an effect the other way counts as inactive or inconclusive.

C=CCNC(=S)N1CCC(C(=O)c2ccc(Cl)cc2)CC1 was read as TDP1 block 5.2%, DT40 TDP1 CPT 16.4µM*, uPA generation -1.8%, miR-21 reporter 8.4% and TDP1 cell noCPT inconclusive.
Screening CCCCC12CN3CC(C)(CN(C1)C3c1c[nH]c3ccccc13)C2=O (configuration not stated) returned TDP1 block 2.3%, DT40 TDP1 CPT inconclusive, miR-21 reporter 11.3% and TDP1 cell noCPT inconclusive.
Screening NC(=O)CCN1CCC(c2nc3ccccc3s2)CC1 returned TDP1 block 0.4%, DT40 TDP1 CPT 11.1%, uPA generation 0.8%, miR-21 reporter -4.5% and TDP1 cell noCPT -23.3%.
CCOC(=O)c1ccc(NC(=O)COC(=O)c2cccc(Oc3ccccc3)c2)cc1 was read as TDP1 block 3.2%, DT40 TDP1 CPT 9.2%, uPA generation 2.5%, miR-21 reporter -7.2% and TDP1 cell noCPT 0.8%.
For CCc1cccc(NC(=O)CCN2C(=O)c3ccccc3Sc3ncccc32)c1 the results were TDP1 block -2.6%, DT40 TDP1 CPT inconclusive, miR-21 reporter 2.6% and TDP1 cell noCPT inconclusive.
`CCCCSCCCNC(=O)CCCN1C(=O)c2ccccc2Sc2ncccc21` gave DT40 TDP1 CPT inconclusive, uPA generation 0.8%, miR-21 reporter -0.1% and TDP1 cell noCPT 16.4µM*.
For Cc1ccc(C)c(NC(=O)CCN2C(=O)c3ccccc3Sc3ncccc32)c1 the results were TDP1 block 0.0%, DT40 TDP1 CPT inconclusive, miR-21 reporter inconclusive and TDP1 cell noCPT 18.4µM*.
Screening O=C(CCN1C(=O)c2ccccc2Sc2ncccc21)Nc1ccc(F)cc1 returned TDP1 block 0.0%, DT40 TDP1 CPT 16.4µM*, miR-21 reporter 1.8% and TDP1 cell noCPT inconclusive.
Cc1cccc2cc(/C=N/NC(=O)[C@H]3C[C@@H]3c3ccccc3)c(Cl)nc12 was read as DT40 TDP1 CPT -1.5%, uPA generation 2.9%, miR-21 reporter -5.1% and TDP1 cell noCPT 0.1%.
`COc1ccc(CN(C)C[C@H]2Oc3c(NC(=O)Nc4ccccc4)cccc3C(=O)N([C@H](C)CO)C[C@@H]2C)cc1` gave TDP1 block 3.9%, DT40 TDP1 CPT 16.4µM*, uPA generation -25.7% and TDP1 cell noCPT 29.1µM*.
Screening COc1ccc(S(=O)(=O)Nc2cccc3c2O[C@H](CN(C)Cc2ccc(-c4ccccc4)cc2)[C@@H](C)CN([C@H](C)CO)C3=O)cc1 returned TDP1 block 3.1%, DT40 TDP1 CPT inconclusive, uPA generation inconclusive and TDP1 cell noCPT inconclusive.
Screening C[C@@H]1CN([C@H](C)CO)C(=O)c2cccc(NS(=O)(=O)c3cccs3)c2O[C@H]1CN(C)Cc1ccccc1 returned TDP1 block 3.7%, DT40 TDP1 CPT 11.6µM*, uPA generation 0.7% and TDP1 cell noCPT 11.6µM*.
Screening COc1ccc(S(=O)(=O)Nc2cccc3c2O[C@H](CN(C)Cc2ccc(Oc4ccccc4)cc2)[C@@H](C)CN([C@H](C)CO)C3=O)cc1 returned TDP1 block 2.1%, DT40 TDP1 CPT 16.4µM*, uPA generation inconclusive and TDP1 cell noCPT 20.6µM*.
Screening C[C@H](CO)N1C[C@H](C)[C@@H](CN(C)S(=O)(=O)c2cccs2)Oc2c(NS(=O)(=O)c3ccccc3)cccc2C1=O returned TDP1 block 1.3%, DT40 TDP1 CPT -17.4%, uPA generation -3.9% and TDP1 cell noCPT -10.5%.
COc1ccc(NC(=O)Nc2cccc3c2O[C@H](CN(C)C(=O)Nc2ccccc2)[C@@H](C)CN([C@H](C)CO)C3=O)cc1 was read as TDP1 block 2.3%, DT40 TDP1 CPT -3.6%, uPA generation -15.3% and TDP1 cell noCPT -10.7%.
`O=C1/C(=C/c2cccnc2)N=C2CCCCCN12` gave TDP1 block 5.1%, DT40 TDP1 CPT -8.6%, uPA generation 1.9%, miR-21 reporter -2.8% and TDP1 cell noCPT -12.5%.
Screening Nc1nccnc1C(=O)OCC(=O)Nc1ccc2[nH]c(=O)[nH]c2c1 returned TDP1 block -13.3%[0.505 µM], DT40 TDP1 CPT -16.1%, uPA generation -2.6% and TDP1 cell noCPT -1.1%.

Of the compounds above, two contain a Cl atom:
C=CCNC(=S)N1CCC(C(=O)c2ccc(Cl)cc2)CC1 was read as TDP1 block 5.2%, DT40 TDP1 CPT 16.4µM*, uPA generation -1.8%, miR-21 reporter 8.4% and TDP1 cell noCPT inconclusive.
Cc1cccc2cc(/C=N/NC(=O)[C@H]3C[C@@H]3c3ccccc3)c(Cl)nc12 was read as DT40 TDP1 CPT -1.5%, uPA generation 2.9%, miR-21 reporter -5.1% and TDP1 cell noCPT 0.1%.
